## Antibody variant affinities, Ab-14 heavy chain, assay B

Source: Li et al. 2023 (doi:10.1038/s41467-023-39022-2), MIT Lincoln Laboratory and A-Alpha Bio; data file from the FLAb repository.

Antigen: PDVDLGDISGINAS, a 14-residue peptide of the SARS-CoV-2 spike HR2 region.

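The parent was found by panning a naive human phage display library on the peptide. These sequences belong to a second round, designed from the earlier measurements on random variants of the parent. Their group label is 14H_En_HC (En: ensemble of fine-tuned language models; HC: hill climbing; a sequence that several methods proposed may carry one label only). The scFvs were displayed on barcoded MATa yeast, the peptide on MATalpha yeast. Pairs that bind mate more often; barcode pairs of the diploids are counted by sequencing. Read counts were normalised to the haploid input and turned into Kd by a linear fit to BCL2-family pairs of known affinity, for each replicate. The assay was run in six technical replicates.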

Each scFv is VH, a 15-residue (Gly4Ser)3 linker, VL, as in the parent Ab-14, and differs from it in the CDRs of the heavy chain only.
VH: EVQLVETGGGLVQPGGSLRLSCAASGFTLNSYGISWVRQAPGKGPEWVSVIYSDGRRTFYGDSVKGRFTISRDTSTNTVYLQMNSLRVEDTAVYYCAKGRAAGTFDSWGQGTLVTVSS
VL: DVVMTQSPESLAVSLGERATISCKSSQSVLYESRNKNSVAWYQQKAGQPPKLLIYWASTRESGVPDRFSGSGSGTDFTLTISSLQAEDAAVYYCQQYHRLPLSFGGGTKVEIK

The parent's heavy chain CDRs are GFTLNSYGIS, VIYSDGRRTFYGDSVK, GRAAGTFDS; each variant's own CDRs replace them letter for letter.
Values are log10 of the apparent Kd in nM; lower means stronger binding.
Replicates are averaged; those with no signal do not enter the mean.
"n.d." marks a missing value. The strain was present, yet no cells mated with the target were sequenced in that replicate, which points to weak or no binding.
A sequence measured in both rounds can read differently, since the two assays cover different ranges.
The parent sequence was in this pool as ten entries: three were never detected, three once, and four in most replicates, with averages from 0.34 to 2.37.
In the paper, a design with two or fewer of six values counts as a poor binder.
Background: pairings of all heavy chain designs with three empty control strains gave a value in 1% of cases (median 2.08, 5th percentile 0.84). Values in that range, when seen in few replicates, are hard to tell from nonspecific mating. Also given: how often the same scFv was detected with the empty control strains, with their mean in brackets.

CDR-H1,CDR-H2,CDR-H3,log10 Kd (nM) by replicate,"log10 Kd (nM), mean",control signals
GFDLNEYGIS,VIYADGMRTMYTDSVK,GNEAGTFDS,-0.10 / 0.47 / -0.09 / -0.13 / -0.02 / 0.39,0.09,1 of 18 (1.33)
GFDLNEYGIS,VIYADGRRTSYADSVK,GNLAGTFDS,-0.22 / -0.36 / -0.82 / -0.52 / -0.65 / -0.28,-0.47,0 of 18
GFDLNEYGIS,VIYADGMRTAYDDSVK,GQVAGTFDS,-0.37 / -0.10 / -0.65 / -0.34 / 0.04 / -0.48,-0.32,1 of 18 (2.15)
GFDINEYGIS,VIYADGRRTFYADSVK,GNQGGTFDM,-0.21 / -0.42 / -0.57 / -0.48 / -0.01 / 0.28,-0.23,0 of 18
GFDLDEYGIS,VIYADGKRTFYADSVK,GTNAGTFDA,0.47 / 0.21 / 0.41 / 0.12 / 0.58 / 0.76,0.43,1 of 18 (1.89)
GFDLNEYGIS,VIYADGKRTFYIDSVK,GTNAGTFDS,-0.25 / -0.35 / -0.61 / -0.34 / -0.54 / -0.34,-0.40,0 of 18
GFDLNEYGIS,VIYADGRRTAYADSVK,GNVAGTFNV,-0.35 / -0.09 / -0.61 / -0.57 / -0.65 / -0.31,-0.43,1 of 18 (0.87)
GFDLNEYGIS,VIYADGKRTFYSDSVK,GEVAGTFVS,-0.11 / -0.88 / -0.79 / -0.75 / -0.80 / -0.59,-0.65,0 of 18
GFDLNEYGIS,VIYADGRRTFYTDSVK,GENAGIFDV,0.84 / 0.54 / 0.52 / 0.23 / 0.32 / 0.37,0.47,0 of 18
GFDLNEYGIS,VIYADGRRTFYTDSVK,GQLAGTFDM,-0.05 / -0.22 / -0.23 / -0.39 / -0.39 / -0.60,-0.31,0 of 18
GFNLNEYGIS,VIYADGMRTFYADSVK,GEHAGTFDI,-0.27 / -0.74 / -1.31 / 0.77 / -0.05 / -0.71,-0.38,0 of 18
GFDLNEYGIS,VIYADGQRTFYADSVK,GTNAGTFDQ,-0.71 / -0.62 / -0.32 / -0.53 / -0.21 / -0.66,-0.51,0 of 18
GFDLNEYGIS,VIYADGRRTFYADSVK,GQLAGTFDM,-0.39 / -0.53 / -0.83 / -1.12 / -0.91 / -0.96,-0.79,0 of 18
GFDLNEYGIS,VIYADGRRTFYADSVK,GSEAGTFDV,-0.62 / -0.61 / -0.65 / -1.02 / -0.39 / -0.72,-0.67,0 of 18
GFDLNEYGIS,VIYADGRRTFYADNVK,GEVAGTFDV,-0.23 / -0.36 / -0.57 / -0.59 / -0.75 / -0.46,-0.49,1 of 18 (1.66)
GFDLNEYGIS,VIYADGMRTVYADSVK,GTAAGTFDQ,-0.35 / -0.04 / 0.01 / -0.56 / -0.15 / 0.01,-0.18,0 of 18
GFDLNEYGIS,VIYADGRRTFYSDKVK,GNVGGTFDV,-0.09 / -0.42 / -0.05 / -0.96 / -0.48 / -0.47,-0.41,0 of 18
GFDLNEYGIS,VIYADGRRTFYSDSVK,GTIGGTFDI,0.97 / 0.41 / 0.44 / 0.54 / 0.22 / 0.75,0.55,0 of 18
GFDLNEYGIS,VIYADGRRTAYSDSVK,GEAGGTFDE,-0.27 / -0.28 / -0.78 / -0.85 / 0.39 / -0.57,-0.39,0 of 18
GFDLEDYGIS,VIYADGRRTAYIDSVK,GELAGTFDS,0.19 / -0.26 / -0.16 / -0.60 / -0.15 / 0.04,-0.16,0 of 18
GFDLNEYGIS,VIYADGRRTFYADSVK,GSLAGTFNM,0.01 / -0.01 / -0.51 / -0.13 / 0.52 / 0.20,0.01,0 of 18
GFDLNEYGIS,VIYADGLRTSYADSVK,GQNAGTFDI,-1.40 / -1.52 / -0.98 / -2.15 / -1.26 / -1.81,-1.52,0 of 18
GFDLNEYGIS,VIYADGKRTFYTDSVK,GTFAGTFDV,-0.24 / -0.64 / -0.34 / -0.60 / -0.38 / -0.33,-0.42,1 of 18 (3.14)
GFSLDEYGIS,VIYADGRRTFYADSVK,GEAAGTFDS,1.71 / 2.34 / 1.15 / 1.98 / 0.94 / 1.65,1.63,0 of 18
GFDLNEYGIS,VIYADGRRTFYADSVK,GNVAGTFSS,-0.42 / -1.11 / -0.88 / -1.02 / -0.71 / -0.68,-0.80,0 of 18
GFDLNEYGIS,VIYADGRRTQYIDSVK,GNQAGTFDQ,0.15 / -0.01 / -0.05 / -0.05 / 0.36 / 0.30,0.12,0 of 18
GFDLEEYGIS,VIYADGRRTAYSDSVK,GENAGTFDI,0.67 / -0.84 / 0.11 / -1.38 / 0.39 / -0.67,-0.29,0 of 18
GFDLNEYGIS,VIYADGRRTFYADSVK,GNNAGTFDL,-0.48 / -0.72 / -0.83 / -0.82 / -0.95 / -0.79,-0.77,0 of 18
GFDLNEYGIS,VIYADGRRTFYSDKVK,GNEGGTFDI,-0.57 / -0.01 / -0.45 / -0.20 / -0.39 / 0.87,-0.12,0 of 18
GFDLNEYGIS,VIYADGQRTAYADSVK,GKVAGTFDQ,-0.43 / -0.11 / -0.48 / 0.45 / -0.40 / -0.50,-0.25,0 of 18
GFDLNEYGIS,VIYADGRRTFYADSVK,GEVAGTFVV,-0.14 / -0.13 / 0.08 / -0.10 / 0.62 / 0.09,0.07,0 of 18
GFDLNEYGIS,VIYADGRRTFYTDSVK,GVNAGTFDS,-0.51 / -0.45 / -0.52 / -0.73 / -0.51 / -0.67,-0.56,0 of 18
GFNLNEYGIS,VIYADGRRTFYADKVK,GNAAGTFDV,-0.45 / -0.71 / -0.65 / -0.69 / -0.80 / -0.65,-0.66,1 of 18 (4.38)
GFDLNEYGIS,VIYADGSRTQYIDSVK,GEVAGTFDS,n.d. / n.d. / n.d. / n.d. / n.d. / n.d.,n.d.,0 of 18
GFDLNDYGIS,VIYADGRRTAYIDSVK,GEVAGTFDM,-0.12 / -0.21 / -0.18 / -0.17 / -0.27 / -0.13,-0.18,0 of 18
GFDLNEYGIS,VIYADGMRTAYVDSVK,GEQAGTFDL,-1.38 / -0.29 / -1.68 / -1.45 / -0.48 / -1.58,-1.14,1 of 18 (-0.21)
GFDLNEYGIS,VIYADGRRTQYIDSVK,GEGAGTFDT,0.08 / -0.20 / 0.30 / 0.14 / 0.85 / 0.17,0.22,0 of 18
GFDLNEYGIS,VIYADGMRTQYIDSVK,GNQAGTFDL,0.49 / 0.23 / 0.22 / -0.14 / 0.33 / 0.30,0.24,0 of 18
GFDLNEYGIS,VIYADGRRTFYSDSVK,GSNGGTFDI,n.d. / 0.08 / 0.13 / -0.84 / 0.58 / -0.38,-0.09,0 of 18
GFTLDEYGIS,VIYADGQRTFYADSVK,GEAAGTFDI,-0.44 / -0.52 / 0.29 / 0.09 / -0.30 / 0.74,-0.02,1 of 18 (0.54)
GFDIDEYGIS,VIYADGRRTFYADSVK,GTNAGTFDL,0.22 / -0.69 / -0.60 / -1.06 / -0.70 / -0.94,-0.63,0 of 18
GFDLNEYGIS,VIYADGKRTFYSDSVK,GEVAGTFDV,-0.13 / -0.41 / -0.32 / -0.60 / -0.48 / -0.33,-0.38,0 of 18
GFTLDEYGIS,VIYADGRRTFYADSVK,GNVAGTFDQ,-0.38 / -0.64 / -0.57 / -0.75 / -0.71 / -0.54,-0.60,2 of 18 (2.85)

Repeated from above, the 7 best binders with a signal in all replicates:

CDR-H1	CDR-H2	CDR-H3	log10 Kd (nM) by replicate	log10 Kd (nM), mean	control signals
GFDLNEYGIS	VIYADGLRTSYADSVK	GQNAGTFDI	-1.40 / -1.52 / -0.98 / -2.15 / -1.26 / -1.81	-1.52	0 of 18
GFDLNEYGIS	VIYADGMRTAYVDSVK	GEQAGTFDL	-1.38 / -0.29 / -1.68 / -1.45 / -0.48 / -1.58	-1.14	1 of 18 (-0.21)
GFDLNEYGIS	VIYADGRRTFYADSVK	GNVAGTFSS	-0.42 / -1.11 / -0.88 / -1.02 / -0.71 / -0.68	-0.80	0 of 18
GFDLNEYGIS	VIYADGRRTFYADSVK	GQLAGTFDM	-0.39 / -0.53 / -0.83 / -1.12 / -0.91 / -0.96	-0.79	0 of 18
GFDLNEYGIS	VIYADGRRTFYADSVK	GNNAGTFDL	-0.48 / -0.72 / -0.83 / -0.82 / -0.95 / -0.79	-0.77	0 of 18
GFDLNEYGIS	VIYADGRRTFYADSVK	GSEAGTFDV	-0.62 / -0.61 / -0.65 / -1.02 / -0.39 / -0.72	-0.67	0 of 18
GFNLNEYGIS	VIYADGRRTFYADKVK	GNAAGTFDV	-0.45 / -0.71 / -0.65 / -0.69 / -0.80 / -0.65	-0.66	1 of 18 (4.38)